The species entered for one series is Homo sapiens. Briefly: Protein binding in human plasma. The note with it: read-out: PB (converted).
Series [1] deals with Tyrosine-protein kinase Lck (Homo sapiens, UniProt P06239).

Sequences of proteins named here, by UniProt entry; tags and fusion partners are left off. A change or cut given only in a name is not applied to a line headed by its entry.
UniProt P06239: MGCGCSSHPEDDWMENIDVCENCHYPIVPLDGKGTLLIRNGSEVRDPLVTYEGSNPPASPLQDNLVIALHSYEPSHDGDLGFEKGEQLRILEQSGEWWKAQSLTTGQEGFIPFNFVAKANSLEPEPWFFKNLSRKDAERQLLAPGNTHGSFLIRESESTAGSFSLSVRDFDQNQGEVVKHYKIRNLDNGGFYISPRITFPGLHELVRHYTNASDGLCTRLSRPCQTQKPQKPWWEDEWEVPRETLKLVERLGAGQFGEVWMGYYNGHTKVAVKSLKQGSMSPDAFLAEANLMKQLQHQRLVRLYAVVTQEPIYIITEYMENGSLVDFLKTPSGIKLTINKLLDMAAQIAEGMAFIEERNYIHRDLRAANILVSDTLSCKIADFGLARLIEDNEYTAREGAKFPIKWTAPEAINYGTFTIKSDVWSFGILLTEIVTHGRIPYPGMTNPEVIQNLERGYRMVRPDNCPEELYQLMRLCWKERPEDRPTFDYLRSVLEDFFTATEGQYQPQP

pIC50: −log10 of the molar value.

As to `Cc1ccc(NC(=O)c2ccc3c(c2)OC(F)(F)O3)cc1C(=O)Nc1cnc(Nc2ccc(N3CCN(C)CC3)cc2)nc1`, the fraction unbound in the series filed under Homo sapiens is 0.042.

As for `COc1cc(OC)cc(C(=O)Nc2ccc(C)c(C(=O)Nc3cnc(Nc4ccc(N5CCN(C)CC5)cc4)nc3)c2)c1`, in the series listed under Homo sapiens, the fraction unbound is 0.032.

What is called pIC50 is the negative decadic logarithm of the IC50, by convention in mol/L. A high value points to a low IC50. With `Cc1ccc(NC(=O)c2cccc(C(F)(F)F)c2)cc1C(=O)Nc1cncnc1`, the pIC50 in series [1] was 6.62.

With `Cc1ccc(NC(=O)c2cc(F)cc(C(F)(F)F)c2)cc1C(=O)Nc1cnc(Nc2ccc(N3CCN(C)CC3)cc2)nc1`, the fraction unbound in the series filed under Homo sapiens was 0.036.

Source of the values: ChEMBL document CHEMBL1144680, “Structure-guided design of aminopyrimidine amides as potent, selective inhibitors of lymphocyte specific kinase: synthesis, structure-activity relationships, and inhibition of in vivo T cell activation” (J Med Chem, 2008).
